# Reference: ChEMBL document CHEMBL4811262, “Parallel discovery of selective and dual inhibitors of tryptophan dioxygenases IDO1 and TDO2 with a newly-modified enzymatic assay” (Bioorg Med Chem, 2021)
# Sequences of proteins named here, by UniProt entry; tags and fusion partners are left off. A change or cut given only in a name is not applied to a line headed by its entry.
# UniProt P48775: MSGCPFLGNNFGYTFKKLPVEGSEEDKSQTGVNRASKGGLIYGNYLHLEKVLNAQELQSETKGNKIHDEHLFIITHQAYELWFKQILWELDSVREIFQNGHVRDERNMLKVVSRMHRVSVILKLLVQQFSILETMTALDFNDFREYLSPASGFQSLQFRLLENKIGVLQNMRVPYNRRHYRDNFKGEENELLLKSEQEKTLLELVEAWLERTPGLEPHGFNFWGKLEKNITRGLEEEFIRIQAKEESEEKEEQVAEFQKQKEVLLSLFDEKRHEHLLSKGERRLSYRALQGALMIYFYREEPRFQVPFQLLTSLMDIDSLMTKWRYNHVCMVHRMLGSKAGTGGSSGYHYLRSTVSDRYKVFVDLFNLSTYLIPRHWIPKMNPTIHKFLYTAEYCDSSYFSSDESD
# pIC50: −log10 of the molar value.
# Experiments:
# [1] = target: T1, Tryptophan 2,3-dioxygenase (Homo sapiens, UniProt P48775); experiment: Inhibition of recombinant human TDO2 expressed in Escherichia coli BL21 (DE3) assessed as reduction in N-formylkynurenine formation using L-tryptophan as substrate incubated for 30 mins by methylene blue reagent based concurrent assay
# [2] = target: T1, Tryptophan 2,3-dioxygenase; experiment: Inhibition of recombinant human TDO2 expressed in Escherichia coli BL21 (DE3) assessed as reduction in N-formylkynurenine formation using L-tryptophan as substrate incubated for 30 mins by methylene blue reagent based assay
compound,measurement,setting,value
Fc1ccc2c(/C=C/c3cccnc3)c[nH]c2c1,pIC50,[1],6.51
same,pIC50,[2],6.96
